Binding of CDR-mutated scFvs to a peptide of the spike HR2 region

Antigen: PDVDLGDISGINAS, a 14-residue peptide of the SARS-CoV-2 spike HR2 region.

Ab-14 is the parent antibody, in scFv form: VH, then three GGGGS repeats, then VL. The light chain is unchanged in all variants.
VH: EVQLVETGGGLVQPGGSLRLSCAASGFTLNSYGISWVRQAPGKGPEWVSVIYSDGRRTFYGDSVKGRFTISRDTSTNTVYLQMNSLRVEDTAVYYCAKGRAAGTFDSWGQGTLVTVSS
VL: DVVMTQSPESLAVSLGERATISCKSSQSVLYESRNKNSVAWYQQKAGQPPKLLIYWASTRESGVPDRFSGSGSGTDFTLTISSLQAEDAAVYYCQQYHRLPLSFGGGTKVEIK

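The variants were designed computationally from a first round of random CDR variants and then made and measured. Group labels follow the data file (Ctrl: baseline library sampled from a position-specific scoring matrix, with some repeated check sequences; Rand: our label for a block that the file lists under HC and that is probably the random mutants of the ten best first-round binders; En: ensemble of fine-tuned language models; GP: Gaussian process model; GPLM: also part of the Gaussian process libraries; HC: hill climbing; Gen: genetic algorithm; Gibbs: Gibbs sampling; a sequence that several methods proposed may carry one label only). Affinity was read by AlphaSeq, a pooled yeast mating assay with surface-displayed partners. After mating in shaken culture at 30 °C for 16 h, diploids were selected and their barcode pairs sequenced. A regression on co-assayed BCL2-family reference pairs converts the normalised counts of each replicate to an apparent Kd. There are six technical replicates.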

Variants are written as CDR1, CDR2 and CDR3 of the heavy chain (limits as in the source). Parent: GFTLNSYGIS, VIYSDGRRTFYGDSVK, GRAAGTFDS.
Values are log10 of the apparent Kd in nM; lower means stronger binding.
A mean of the replicates is given; it leaves out those without a signal.
"nd" marks a missing value. The strain was present, yet no cells mated with the target were sequenced in any replicate, which points to weak or no binding.

CDR-H1,CDR-H2,CDR-H3,group,"log10 Kd (nM), mean",detected
GDILEDYGIS,VIYADGRRRAYVENVK,GVYAGYFDV,En_Gibbs,nd,0/6
GFDLNEYGIS,VIYADGMRTFYSDSVK,GNQAGTFDS,En_HC,0.14,6/6
GFDLNEYGIS,VIYADGIRTFYADSVK,GNIAGTFII,En_HC,0.51,5/6
GFDINEYGVS,VIYADGMRTAYRDSVK,GEGKWINLI,En_Gibbs,nd,0/6
GFTLNSYGIS,VIYSDGRRTFYADSVK,GQEAGTFDT,GPLM_Gibbs,-0.01,6/6
GFALDSYGIS,VIYSDGRRTFYGDSVK,GRVAGTFDS,Ctrl,0.47,6/6
GFDLNEYGIS,VIYADGKRTFYSDSVK,GTNAGTFDI,En_HC,-0.50,6/6
GFDLNEYGIS,VIYADGVRQAYADSVK,GEVAGTFDV,En_Gen,-0.43,6/6
GFTLNSYGIS,VIYSDGKRTFYIDSVK,GRAAGTFWS,GP_HC,nd,0/6
GFSLDEYGIS,VIYADGQRTFYADSVK,GNSAGTFDS,En_HC,-0.18,6/6
GFDLNEYGIS,VIYADGQRTFYADSVK,GEAAGTFDV,En_HC,-0.49,6/6
KFQLNSYGIS,VIYADGRRTFYGDSVK,GEAAGTFDS,GP_Gibbs,1.48,6/6
GFNLNSYGIS,VIYSDGRRTFYGDSVK,GKIAGTFDS,GP_Gen,1.08,6/6
GFSLNEYGIS,VIYSDGRRTFYGDSVK,GRSAGTFDK,GPLM_Gen,-0.01,6/6
GFDLEDYGIS,VIYADGRRTFYSDSVK,GEVAGTFDS,En_HC,1.47,5/6
GFQLNSYGIS,VIYADGRRTFYGDQVK,GRAAGTFDS,GP_HC,0.64,6/6
GFDLNSYGIS,VIYSDGRRTFYGDSVK,GTAAGTFDS,GPLM_Gen,0.48,6/6
GFQLDEYGIS,VIYADGRRTFYADSVK,GNVAGTFDV,En_HC,-0.56,6/6
GFDLNSYGIS,VIYSDGRRTFYLDSVK,GWTAGTFDS,GP_Gibbs,0.41,6/6
GFTLNSYGIS,VIYSDGRRTFYHDSVK,GQVAGTFDS,GPLM_Gibbs,0.91,6/6
DFNLNEYGIS,VIYADGQRASYLDKVK,GQISGTFDT,En_Gibbs,nd,0/6
GFELNSYGIS,VIYSDGRRTFYGDSVK,GVKAGTFDT,GP_Gibbs,0.97,6/6
GFGLNEYGIS,VIYSDGRRTFYGDPVK,GRTAGTFDS,GP_Gibbs,0.64,6/6
GFTLKSYGIS,VIYSDGRRTFYGDSVK,GRKAGTFDS,Ctrl,nd,0/6
MFELNSYGIS,VIYADGRRTFYGDSVK,GNAAGTFDS,GP_Gibbs,0.73,6/6
GFDLNSYGIS,VIYSDGRRTFYGDEVK,GQAAGTFDS,GP_Gibbs,0.65,6/6
GFSLNSYGIS,VIYSDGRRTFYADAVK,GQAAGTFDS,GPLM_Gen,0.32,6/6
GFDLNEYGIS,VIYADGSRTAYADSVK,GEAAGSFDQ,En_HC,0.65,6/6
GFDLNEYGIS,VIYADGRRTFYVDSVK,GEAAGTFDQ,En_HC,-0.59,6/6
GFTLNEYGIS,VIYSDGRRVFYADSVK,GRAAGLFES,Ctrl,3.33,1/6
GFTLDSYGIS,VIYADGRRTFYGDSVK,GRAAGTFDQ,GP_HC,-0.04,6/6
GFTLNSYGIS,VIYSDGRRTFYGDSVR,GRVAGTFKS,Ctrl,1.44,6/6
GFTLNSYGIS,VIYADGRRTFYGDQVK,GRAAGTFTS,GP_HC,nd,0/6
GFDLNEYGIS,VIYADGVRTFYADNVK,GNVAGTFDL,En_HC,-0.13,6/6
GFCLNSYGIS,VIYRDGRRTFYSDSVK,GRAAGTFRS,Ctrl,1.33,1/6
GFTLNEYGIS,VIYSDGQRTFYGDDVK,GRTAGTFDS,GP_Gibbs,0.26,6/6
GFDLNEYGIS,VIYADGVRTAYADSVK,GNNAGTFDL,En_Gen,-0.69,6/6
GFTLNDYGIS,VIYSDGRRTAYSDSVK,GRAAGTFDS,GPLM_HC,0.28,6/6
GFDLNEYGIS,VIYADGMRTAYVDSVK,GNNAGTFDM,En_Gen,0.64,6/6
GFTLNSYGIS,VIYSDGRRTFYADSVK,GSAAGTFDK,GPLM_Gibbs,0.69,6/6
GFTLNDYGIT,VIYSDGRRTMYGDNVK,GRAGGTFDS,Ctrl,nd,0/6
GFDLNNYGIS,VIYSDGRRTFYGDSVE,GVAAGTFSL,Ctrl,0.44,1/6
GQSLNEYGIS,VIYADGHRKMYANDVK,GKIGGIFED,En_Gibbs,nd,0/6
GFDLDEYGIS,VIYADGRRTFYADSVK,GSNAGTFLM,En_HC,0.91,2/6
GFDINEYGVS,VIYADGMRTAYTDSVK,GEGQWIALI,En_Gibbs,nd,0/6
PFDLNSYGIS,VIYSDGRRTFYADSVK,GRTAGTFDS,GP_Gen,0.16,6/6
GFGLDEFGIS,VIYADGLRSSYVDDVK,GELTGGFKV,En_Gibbs,nd,0/6
GFDLNEYGIS,VIYADGRRTAYADDVK,GSNAGTFDV,En_Gen,0.61,6/6
GETLNSYGIS,VIYSDGRRTFYGPSVK,GRAAGTFDS,Ctrl,2.67,3/6
GFNLNEYGIS,VIYADGMRSFYSDSVK,GEAAGTFDV,En_HC,-0.35,6/6
GMDIEDYGIS,VIYADGKRKAYAQKFK,GHTGGTFGD,En_Gibbs,0.53,4/6
GFTLNEMGVS,VIYSDGRRTFYNDSVK,GRFAGTFDT,Rand,2.38,1/6
GFTLNSYGIS,VIYSDGRRTWYSDSVK,GRAGGTFDS,Rand,nd,0/6

From the list, the first 3 with no signal in any replicate:

CDR-H1,CDR-H2,CDR-H3,group,"log10 Kd (nM), mean",detected
GDILEDYGIS,VIYADGRRRAYVENVK,GVYAGYFDV,En_Gibbs,nd,0/6
GFDINEYGVS,VIYADGMRTAYRDSVK,GEGKWINLI,En_Gibbs,nd,0/6
GFTLNSYGIS,VIYSDGKRTFYIDSVK,GRAAGTFWS,GP_HC,nd,0/6

Empty control strains, which show no peptide, gave a signal in 1% of pairings with all heavy chain designs; the median was 2.08 and 95% of these signals were weaker than 0.84. No background was subtracted.
In the paper, a design with two or fewer of six values counts as a poor binder.
The parent sequence was in this pool as ten entries: three were never detected, three once, and four in most replicates, with averages from 0.34 to 2.37.
Values of this round are not directly comparable with the first-round values of the same sequences.

Source: Li et al. 2023 (doi:10.1038/s41467-023-39022-2), MIT Lincoln Laboratory and A-Alpha Bio; data file from the FLAb repository.